Source: patent publication US20110300129A1, “SYSTEMS AND METHODS FOR ENHANCING VACCINE EFFICACY” (UNIVERSITY OF ROCHESTER, priority 2008, published 2011)

Chains of the proteins cited; added tags and fusions are not shown. Lines headed by an entry give the natural chain unless they say otherwise; changes in a name come on top.
UniProt P37231: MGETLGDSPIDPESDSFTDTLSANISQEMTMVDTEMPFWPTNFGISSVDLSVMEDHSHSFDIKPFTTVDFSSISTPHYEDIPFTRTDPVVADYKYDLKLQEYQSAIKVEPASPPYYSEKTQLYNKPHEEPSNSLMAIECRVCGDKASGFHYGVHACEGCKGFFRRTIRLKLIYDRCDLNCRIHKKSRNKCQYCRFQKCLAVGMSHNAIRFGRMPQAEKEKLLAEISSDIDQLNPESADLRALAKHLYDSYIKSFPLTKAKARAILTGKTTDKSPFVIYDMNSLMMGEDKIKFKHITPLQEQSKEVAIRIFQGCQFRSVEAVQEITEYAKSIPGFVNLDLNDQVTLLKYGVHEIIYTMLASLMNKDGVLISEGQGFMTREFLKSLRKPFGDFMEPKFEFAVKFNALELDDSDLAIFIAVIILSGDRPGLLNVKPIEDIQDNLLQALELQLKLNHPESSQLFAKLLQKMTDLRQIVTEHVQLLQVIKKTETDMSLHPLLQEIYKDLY

Tests used:
peripheral blood B cells = test: Plasma cell differentiation, CD38/CD27 surface labeling by flow cytometry; assay type: cell-based, human; conditions: CpG 1 μg/ml, 5 days
Method: Intracellular and Surface Labeling: B cells were incubated with mouse anti-human CD19-APC (BD Biosciences), anti-human CD38-PE (BD Biosciences) and/or anti-human CD27-APC (BD Biosciences) in cold PBS with sodium azide (0.02%) and BSA (0.3%) for 20 min at 20° C. COX-2 intracellular staining was performed as described previously (Padilla et al., “Human B Lymphocytes and B Lymphomas Express PPAR-γ and Are Killed by PPAR-γ Agonists,” Clin Immunol 103:22-33 (2002), which is hereby incorporated by reference in its entirety). All samples were acquired on a BD Biosciences FACS Calibur flow cytometer and analyzed using FlowJo software (Tree Star, Inc. Ashland, Oreg.).
Peripheral-blood B lymphocytes include both naive and memory B cell populations. These two B cell subsets can be distinguished based on CD27 expression, which is a marker of memory B cells (Agematsu et al., “CD27: A Memory B-cell Marker,” Immunol Today 21:204-206 (2000), each of which is hereby incorporated by reference in its entirety).

PPARγ = target: T1, PPARγ (Homo sapiens, UniProt P37231); test: PPARγ gene reporter analysis (PPRE-luciferase) in transfected B cells; assay type: cell-based; conditions: CpG-activated B cells, 24 h treatment; Rosiglitazone 0.5 μM, 15d-PGJ2 0.2 μM
T1 construct: normal B cells were transfected with a PPARγ luciferase reporter construct; endogenous in cells
Method: Twenty-four hours after treatments, luciferase activity was assayed using the Promega Luciferase Assay System (Madison, Wis.). Relative light units (RLU) were determined with a Lumicount Microplate Luminometer (Packard Instrument Co., Meriden, Conn., USA). Relative light units (RLU) were normalized to transfection efficiency that was monitored by cotransfection of GFP expression vector.
To test whether the PPARγ ligand concentrations used here activated PPARγ, normal B cells were transfected with a PPARγ luciferase reporter construct.

[1] = Cox et al. 2000; cited from earlier work

## CN(CCOc1ccc(CC2SC(=O)NC2=O)cc1)c1ccccn1 (stereo not drawn) [Rosiglitazone, 5-[4-[2-[N-methyl-N-(2-pyridyl)amino]ethoxy]benzyl]thiazolidine-2,4-dione]
Peripheral blood B cells
  CD38highCD27high cells, fold over vehicle: ~1.7 fold
PPARγ
  luciferase activity (PPRE reporter): increased luciferase activity
[1]
  therapeutic blood levels: low micromolar levels
